According to patent US20110182831A1 (priority 2010, published 2011):

Details: pH 3

CN1CCCC1c1cccnc1.O=C(O)C(O)C(O)C(=O)O (centres unmarked) [Nicotine Bitartrate, nicotine bitartrate]
nicotine concentration on storage: unaltered | no loss of nicotine into the polymeric dosage form materials, comparison of salts: better
